Apparent affinities of Ab-14 variants for a coronavirus HR2 peptide

Target: peptide PDVDLGDISGINAS, taken from heptad repeat 2 (HR2) of SARS-CoV-2 spike.

The variants keep the light chain, the linker and the frameworks of Ab-14 (scFv order VH, the linker GGGGSGGGGSGGGGS, VL).
VH: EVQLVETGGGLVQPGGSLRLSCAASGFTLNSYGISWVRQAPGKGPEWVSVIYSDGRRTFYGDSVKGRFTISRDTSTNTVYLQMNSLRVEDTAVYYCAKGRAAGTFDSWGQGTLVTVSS
VL: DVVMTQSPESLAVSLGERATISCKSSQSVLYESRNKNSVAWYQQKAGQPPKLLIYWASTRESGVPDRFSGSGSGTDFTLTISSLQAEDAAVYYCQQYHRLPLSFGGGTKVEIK

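The library (AAYL49) carries one to three amino acid substitutions per variant, with no insertions or deletions. AlphaSeq pools MATa yeast showing the antibodies with MATalpha yeast showing the peptide. After mating in shaken culture at 30 °C for 16 h, diploids were selected and their barcode pairs sequenced. Scores were corrected for input abundance and mapped to Kd with protein pairs of known affinity run in the same pool. The assay was run in three technical replicates.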

Changes read parent residue, position, new residue, counted from the first residue of the VH shown. This list gathers variants with a substitution at S35 (VH, numbered from residue 1). The Kd shown is the geometric mean over detected replicates; a lower Kd is a better binder. "no signal" marks a missing value. The strain was present, yet no cells mated with the target were sequenced in any replicate, which points to weak or no binding. Nonspecific signal, from three strains lacking the peptide, appeared in 15% of pairings of library AAYL49, centred on 11 µM (5% of these signals below 680 nM); values are not corrected for it.

changes,Kd,seen in
L29E/S35T/A102N,2.4 µM,1 of 3
S35E/Y52T/G103L,7.5 µM,1 of 3
L29E/S35A/G99L,no signal,0 of 3
G26A/F27L/S35F,4.0 µM,1 of 3
L29T/S35Q/D106P,no signal,0 of 3
S31F/S35F/F59E,no signal,0 of 3
S35T/R57F/G61H,3.2 µM,1 of 3
S35N/D54Y/F105E,no signal,0 of 3
Y32H/S35A/K65E,78 µM,3 of 3
S35V/G61E/G99V,no signal,0 of 3
S35I/R56L/T58N,no signal,0 of 3
S35K/S53E/V64K,2.5 µM,1 of 3
S35C/T58D/S63I,no signal,0 of 3
S35A/T58R/G61H,71 µM,2 of 3
T28G/S35W,32 µM,1 of 3
I34Y/S35H/D106C,no signal,0 of 3
N30P/S35C/I51K,5.2 µM,3 of 3
S35Y/S53N/K65C,no signal,0 of 3
S35Y/F105C/S107M,50 µM,1 of 3
S35P/Y52M/D54T,250 µM,1 of 3
S35R,no signal,0 of 3
L29G/S35Q/T104R,no signal,0 of 3
S35G/D54A/F59T,130 µM,2 of 3
S35F/G61V/G99R,no signal,0 of 3
S35K/S53A/T58V,no signal,0 of 3
L29C/S35M/F59V,17 µM,2 of 3
S35C/V64H/T104F,610 nM,1 of 3
S35L/D62A/S63D,no signal,0 of 3
Y32V/S35W/R57E,7.2 µM,2 of 3
I34M/S35V/R56T,130 µM,1 of 3
S31W/S35A,no signal,0 of 3
G33M/S35V,80 µM,1 of 3
G26P/S35P/A102M,no signal,0 of 3
S35C/R56V/T104V,no signal,0 of 3
T28Q/S35K,no signal,0 of 3
S31T/S35Q/D62W,no signal,0 of 3
S35K/G55Q/K65C,no signal,0 of 3
I34Q/S35W/V50I,680 µM,2 of 3
N30F/S35T/K65V,7.2 µM,1 of 3
G33M/S35N/A102V,no signal,0 of 3
T28P/N30Q/S35D,no signal,0 of 3
S35L/I51F/Y52A,no signal,0 of 3
S35L/V64D/R100N,no signal,0 of 3
S35T/D62C/G99L,no signal,0 of 3
G26H/S35A/D54S,no signal,0 of 3
S35T/I51R/R100G,38 µM,3 of 3
N30Y/S35G/G61M,25 µM,1 of 3
S35G/V50F,no signal,0 of 3
S35D/T104Q,17 µM,1 of 3
Y32E/S35W/Y52M,96 µM,1 of 3
Y32V/S35L/G103Q,32 µM,3 of 3
S35A/A101I/D106K,2.1 µM,1 of 3
G26T/S35E/K65M,no signal,0 of 3
L29P/S35L/A101R,48 µM,2 of 3
S35P/I51E,no signal,0 of 3
S35V/V64C,no signal,0 of 3
S35E/R56E,no signal,0 of 3
S35V/V64K/F105K,no signal,0 of 3
S35R/S53H/S63L,860 nM,1 of 3
S35H/F59S/Y60Q,4.9 µM,1 of 3
S35A/G61Q/D106G,5.5 µM,2 of 3
S35R/G103K,no signal,0 of 3
Y32E/S35T,37 µM,3 of 3
G33P/S35C/V64Y,no signal,0 of 3
S35M/D54W/G55C,no signal,0 of 3
L29K/S35V/G103W,no signal,0 of 3
S35D/A102G/T104E,5.4 µM,1 of 3
T28A/S35Q,120 nM,1 of 3

The 5 strongest on average among those seen in every replicate, once more:

changes	Kd	seen in
N30P/S35C/I51K	5.2 µM	3 of 3
Y32V/S35L/G103Q	32 µM	3 of 3
Y32E/S35T	37 µM	3 of 3
S35T/I51R/R100G	38 µM	3 of 3
Y32H/S35A/K65E	78 µM	3 of 3

Data: MIT Lincoln Laboratory AlphaSeq set, Engelhart et al. 2022, doi:10.1038/s41597-022-01779-4, as distributed in FLAb.